System: MG63.3 OS cell line
Assay: 2D growth / cytotoxicity by MTT, MG63.3
Conditions: MG63.3, MTT, 72 h, replicates=3
Protocol: The number of viable cells present in 2D culture was determined by MTT as previously reported. Briefly, cells were plated in 96-well plates at 2,000 cells/well and incubated at 37° C. for 24 h. After 24 h, the media was replaced with fresh media containing drugs at the desired concentrations (10 pM-10 μM) and incubated at 37° C. for 72 h. After 72 h, MTT reagent (20 L/well of a 5 mg/mL stock solution in sterile water; Sigma, St. Louis, MO) was added to each well and the plate was incubated at 37° C. for 2 h. DMSO ([…]) was then added to each well to solubilize the formazan crystals.
The resulting absorbance was measured at 490 nm via plate reader (Molecular Devices, San Jose, CA). DMSO (0.1%) was used as vehicle control, while 20 μM rapamycin was used as a positive cell-kill control. The experimental conditions were conducted in triplicate and each experiment was repeated three times. Regression lines and IC50's were calculated using a four-parameter variable slope nonlinear fit in GraphPad Prism.

With `CO[C@@]12[C@H](COC(N)=O)C3=C(C(=O)C(C)=C(N)C3=O)N1C[C@@H]1N[C@@H]12` [mitomycin C] the “doses exhibiting cytotoxicity on 2D growth” value was > 200 nM.

Reference: patent US20250161287A1, “METHODS, COMPOSITIONS, AND COMBINATIONS FOR PREVENTING OR TREATING CANCER RECURRENCE” (VUJA DE SCIENCES, INC., priority 2022, published 2025)
